Measured values from patent publication US11099177B2, “Protein kinase allostery sensor and methods of making and using same” (REGENTS OF THE UNIVERSITY OF MINNESOTA, priority 2016, dated 2021).

How the values were obtained:
Aurora A (AurA) [1] = assay: Steady-state FRET ligand titration with FRET-labeled AurA; type: binding, human; conditions: apo AurA, Alexa 488/Alexa 568
Description: The peptide TPX2 residues 1-43 (Selleck Chemicals, Houston, Tex.) was dissolved at 0.1 mM to 1.2 mM in 100 mM HEPES pH 7.5 and stored at −20° C. ADP stocks (Sigma-Aldrich Corporation, St. Louis, Mo.) were dissolved at 100 mM in 1 M HEPES pH 7.5 and stored at −20° C. Small molecule inhibitors including axitinib and MLN8054 (Selleck Chemicals, Houston, Tex.) were dissolved at 1 mM to 100 mM in DMSO and stored at −20° C.
Steady-state FRET ligand titration experiments (with ADP, TPX2, and inhibitors) were performed at room temperature at 20 nM to 50 nM AurA in ADP Quest Assay buffer +1% DMSO in a Fluoromax-4 spectrofluorometer (Horiba, Ltd., Japan). Samples were excited at 490 nm and fluorescence emission was recorded 510 nm to 750 nm.
Ligand binding data were visualized and analyzed using Microsoft Excel and Origin software. FRET was calculated using the equation E=1−(DA/D), where E is the efficiency of FRET, DA is the fluorescence of the AurA+D+A sample, and D is the fluorescence of the corresponding AurA+D control sample.

Aurora A (AurA) [2] = biological target: T1, Aurora A (AurA) (Homo sapiens, UniProt O14965, C290S/C393S/L225C/S284C); assay: Time-resolved FRET lifetime assay, AurA biosensor labeled at L225C/S284C, 384-well plates
T1 sequence (O14965 122-403 L225C/S284C/C290S/C393S): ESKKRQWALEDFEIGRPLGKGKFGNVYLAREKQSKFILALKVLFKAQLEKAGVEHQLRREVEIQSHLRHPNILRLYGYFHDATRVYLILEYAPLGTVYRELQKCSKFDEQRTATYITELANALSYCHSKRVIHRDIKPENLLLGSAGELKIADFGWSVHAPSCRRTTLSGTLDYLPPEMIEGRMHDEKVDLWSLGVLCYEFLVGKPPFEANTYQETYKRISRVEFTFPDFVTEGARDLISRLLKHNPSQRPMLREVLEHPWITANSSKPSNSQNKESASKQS
T1 sequence (Q9ULW0 1-43 partner): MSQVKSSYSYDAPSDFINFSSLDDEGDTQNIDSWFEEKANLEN

Aurora A (AurA) [3] = assay: as above; conditions: 5 μM inhibitor, samples lacking TPX2 (phosphorylated and unphosphorylated AurA)

inter-probe distance relative to DFG-In compounds (Aurora A (AurA) [2]): slightly shorter distances
SMILES: O=C(O)c1ccc(Nc2ncc3c(n2)-c2ccc(Cl)cc2C(c2c(F)cccc2F)=NC3)cc1 [MLN-8054]
change in FRET on addition of ligand (Aurora A (AurA) [1]): increase in FRET
inter-probe distance (Aurora A (AurA) [3]): ~30 Å
